Test results from ChEMBL document CHEMBL1201862, “PubChem BioAssay data set” (2004).
The other results are listed elsewhere or left out. These assays gave more results; the selection is not random. Active and inactive are the calls of the source. The calls are words filed in the database; no cut-off is given here.

target: T1, Parathyroid hormone/parathyroid hormone-related peptide receptor (Homo sapiens) (UniProt Q03431); assay: qHTS of PTHR Inhibitors: Primary Screen.; assay type: functional
T1 sequence (whole entry): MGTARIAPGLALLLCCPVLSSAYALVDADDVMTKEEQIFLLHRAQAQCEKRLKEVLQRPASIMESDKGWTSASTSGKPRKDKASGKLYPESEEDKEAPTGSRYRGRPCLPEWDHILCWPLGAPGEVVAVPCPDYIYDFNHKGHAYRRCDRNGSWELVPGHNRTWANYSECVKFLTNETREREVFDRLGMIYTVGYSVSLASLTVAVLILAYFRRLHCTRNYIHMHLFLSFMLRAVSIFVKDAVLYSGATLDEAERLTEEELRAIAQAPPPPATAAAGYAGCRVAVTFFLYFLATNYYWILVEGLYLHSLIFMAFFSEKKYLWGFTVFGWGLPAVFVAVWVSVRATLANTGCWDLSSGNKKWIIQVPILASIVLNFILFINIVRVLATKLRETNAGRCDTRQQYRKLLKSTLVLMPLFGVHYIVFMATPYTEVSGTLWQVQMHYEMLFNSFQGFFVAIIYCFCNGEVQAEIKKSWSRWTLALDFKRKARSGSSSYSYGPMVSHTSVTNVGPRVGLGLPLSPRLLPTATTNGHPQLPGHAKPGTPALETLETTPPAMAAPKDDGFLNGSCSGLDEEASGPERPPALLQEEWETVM

Row | Structure (SMILES) | Potency
1 | CC[n+]1c(/C=C/N(C)c2ccccc2)oc2ccc(Cl)cc21 | inactive
